{"sequences": {"note": "The chains behind the UniProt entries cited, without tags or fusion partners. Residues count along the entry.", "UniProt P14740, 37-767 limits assumed": "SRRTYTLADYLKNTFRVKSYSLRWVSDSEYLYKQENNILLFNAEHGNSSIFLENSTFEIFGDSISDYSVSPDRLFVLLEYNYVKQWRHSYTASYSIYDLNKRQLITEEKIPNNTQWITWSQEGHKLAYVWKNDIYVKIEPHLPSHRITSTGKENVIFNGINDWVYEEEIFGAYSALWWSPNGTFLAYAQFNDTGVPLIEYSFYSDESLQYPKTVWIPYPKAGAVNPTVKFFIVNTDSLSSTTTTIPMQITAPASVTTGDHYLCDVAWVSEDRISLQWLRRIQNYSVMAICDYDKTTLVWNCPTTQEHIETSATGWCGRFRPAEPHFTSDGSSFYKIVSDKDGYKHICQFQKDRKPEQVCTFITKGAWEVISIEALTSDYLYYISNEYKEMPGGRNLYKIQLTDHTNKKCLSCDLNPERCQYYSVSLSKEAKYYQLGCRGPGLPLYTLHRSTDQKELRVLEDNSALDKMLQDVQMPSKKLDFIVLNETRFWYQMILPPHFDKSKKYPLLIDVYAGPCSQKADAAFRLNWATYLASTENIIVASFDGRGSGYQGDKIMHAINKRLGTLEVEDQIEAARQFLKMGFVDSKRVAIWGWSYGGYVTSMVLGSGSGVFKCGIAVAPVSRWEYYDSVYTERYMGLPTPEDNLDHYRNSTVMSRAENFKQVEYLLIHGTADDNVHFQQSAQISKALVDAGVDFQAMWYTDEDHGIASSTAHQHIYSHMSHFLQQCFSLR"}, "source": "patent US7368576B2", "about": "“Dipeptidyl peptidase IV inhibitors and their uses as anti-cancer agents” (Probiodrug AG, priority 2001, dated 2008)", "molecular_target": "T1, plasma DPIV activity (Rattus norvegicus, UniProt P14740)", "T1 construct": "determination of plasma DPIV activity consisted of 80 μl reagent and 20 μl plasma sample; from tissue; host or cells: plasma of Wistar rats after i.v. or p.o. dosing", "experiment": "DPIV inhibiting activity after intravasal and oral administration to Wistar rats", "type": "in vivo", "conditions": "100 mg/kg, oral"}
{"smiles": "CC[C@H](C)[C@H](N)C(=O)N1CCC[C@H]1C(=O)N[C@H](C(=O)O)[C@@H](C)CC", "note": "[Diprotin A, Ile-Pro-Ile, reference compound]", "values": [{"measurement": "In vivo DPIV-inhibition at tmax, p.o. (%)", "result": "no inhibition"}]}
{"smiles": "CC(C)C[C@H](NC(=O)[C@@H]1CCCN1C(=O)[C@@H](N)C(C)C)C(=O)O", "note": "[Diprotin B, Val-Pro-Leu, reference compound]", "values": [{"measurement": "In vivo DPIV-inhibition at tmax, p.o. (%)", "result": "no inhibition"}]}
